Measured values reported in patent publication US20250127814A1 (UNIVERSITY OF CHICAGO, published 2025).

Biological target: T1, Borealin N-terminal domain (20-88) (human, UniProt Q53HL2 20-88, biotinylated on the Avi-tag (co-expression with BirA))
T1 construct: range 20-88; The construct carries His- and Avi-tags; Expressed in E. coli; Immobilised via neutravidin (ELISA) or His-tag/NTA chip (SPR); also called Bor-N
T1 sequence (looked up): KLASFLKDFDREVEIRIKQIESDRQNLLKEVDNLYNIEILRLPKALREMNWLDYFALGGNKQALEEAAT
Experiment: single-point Fab ELISA, 50 nM biotinylated target on neutravidin, protein L-HRP [panel A]
Procedure: To rapidly reconfirm the binding and specificity of the obtained Fabs after reformatting into the expression vectors single-point Fab ELISA was performed (FIG. 2). Briefly, 50 nM Avi-tagged targets were immobilized on the prepared NAV-coated and blocked with 0.5% BSA in PBS 96-well ELISA plates. The target coated plates were washed with appropriate buffer (TBST or PBST) and were incubated with 200 nM Fab for 20 minutes and then washed. The washed plates were incubated with protein L conjugated with HRP (1:5000 diluted in TBST) for 30 minutes. Plates were washed and the reaction was developed using the TMB chromogenic substrate (Thermofisher) and subsequently quenched with 1M HCl. Absorbance was read at 450 nm on Epoch plate reader.

B1: BOR-N-55 (Fab, V domains shown)
VH: EVQLVESGGGLVQPGGSLRLSCAASGFNVYYSSIHWVRQAPGKGLEWVASISPYYGSTSYADSVKGRFTISADTSKNTAYLQMNSLRAEDTAVYYCARRWYYTKVFMWGMDYWGQGTLVTVSS
VL: DIQMTQSPSSLSASVGDRVTITCRASQSVSSAVAWYQQKPGKAPKLLIYSASSLYSGVPSRFSGSRSGTDFTLTISSLQPEDFATYYCQQSSSSLITFGQGTKVEIKR
- binding result: no binding (tested: 200 nM)
